Experimental data published in patent publication US6068838A, “Purified multimerase” (Baxter Aktiengesellschaft, priority 1996, dated 2000).

Biological target: T1, vWF-degrading protease (Homo sapiens, UniProt Q76LX8)
T1 sequence (Q76LX8 75-1427): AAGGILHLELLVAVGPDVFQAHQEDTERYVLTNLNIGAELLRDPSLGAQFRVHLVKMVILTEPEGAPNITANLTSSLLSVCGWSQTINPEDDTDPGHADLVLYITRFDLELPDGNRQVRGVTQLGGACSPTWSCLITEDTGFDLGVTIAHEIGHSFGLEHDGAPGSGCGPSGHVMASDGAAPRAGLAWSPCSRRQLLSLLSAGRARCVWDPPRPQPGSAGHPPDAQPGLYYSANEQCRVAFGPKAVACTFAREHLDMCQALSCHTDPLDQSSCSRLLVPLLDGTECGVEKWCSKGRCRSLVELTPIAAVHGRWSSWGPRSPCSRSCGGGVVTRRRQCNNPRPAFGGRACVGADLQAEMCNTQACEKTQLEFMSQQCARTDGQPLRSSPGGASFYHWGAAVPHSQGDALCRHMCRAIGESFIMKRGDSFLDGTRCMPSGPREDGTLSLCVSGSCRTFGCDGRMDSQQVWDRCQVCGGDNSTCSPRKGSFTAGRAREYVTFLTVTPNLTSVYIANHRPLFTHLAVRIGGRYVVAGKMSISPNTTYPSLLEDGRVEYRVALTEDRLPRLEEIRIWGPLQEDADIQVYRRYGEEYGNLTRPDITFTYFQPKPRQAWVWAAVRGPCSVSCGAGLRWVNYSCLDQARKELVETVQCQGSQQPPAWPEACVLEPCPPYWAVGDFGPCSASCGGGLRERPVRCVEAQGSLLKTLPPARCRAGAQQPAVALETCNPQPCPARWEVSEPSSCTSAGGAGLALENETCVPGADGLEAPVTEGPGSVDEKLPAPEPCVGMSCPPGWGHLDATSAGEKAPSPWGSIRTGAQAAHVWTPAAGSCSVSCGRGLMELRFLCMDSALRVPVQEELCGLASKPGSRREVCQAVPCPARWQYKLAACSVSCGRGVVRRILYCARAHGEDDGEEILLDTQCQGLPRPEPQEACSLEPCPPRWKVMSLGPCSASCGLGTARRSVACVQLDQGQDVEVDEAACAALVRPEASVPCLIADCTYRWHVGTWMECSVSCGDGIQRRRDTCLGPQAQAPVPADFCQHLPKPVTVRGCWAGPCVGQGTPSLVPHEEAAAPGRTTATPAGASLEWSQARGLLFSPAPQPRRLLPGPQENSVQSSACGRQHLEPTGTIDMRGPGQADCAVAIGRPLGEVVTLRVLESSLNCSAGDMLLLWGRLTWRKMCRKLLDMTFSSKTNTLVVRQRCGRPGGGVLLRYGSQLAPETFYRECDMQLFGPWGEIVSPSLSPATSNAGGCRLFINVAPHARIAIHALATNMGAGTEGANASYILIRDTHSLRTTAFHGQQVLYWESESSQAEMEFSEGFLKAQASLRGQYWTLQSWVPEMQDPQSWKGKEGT
Type: biochemical

## N=C(N)NCCC[C@H](NC(=O)[C@@H]1CCCN1C(=O)[C@H](N)Cc1ccccc1)C(=O)CCl [PPACK, Diphenylalanylprolyl arginine-chloromethylketone]
  effect on the activity of the vWF-degrading protease: not--or not substantially--affected
